Several values for one entry are separate records, joined by “and”; a condition that tells them apart may be missing. Equal values may be shown once. Read-outs that look alike come from different tables or passages of the source.
What was measured:
benzodiazepine receptors [1] = experiment: Fluorescent ligand binding (BD 621, BD 607) to cortical membranes: association, dissociation, saturation; set-up: species or system rat (Sprague-Dawley)
[2] = Fluorescence spectra, quantum yield, extinction coefficient and solvent/tissue dependence of fluorescence; type: physicochemical
BZ receptors [3] = experiment: Attenuation of fluorescent ligand and radioligand binding in tissues photoaffinity labeled with Ro 15-4513; set-up: species or system rat (Sprague-Dawley); details: in words
BZ receptors [4] = experiment: Inhibition of [3H]Ro 15-1788 (0.7 nM) binding to cortical membranes; set-up: species or system rat (Sprague-Dawley); details: for Ki: read-out: Kl, inhibition of [3H]Ro 15-1788 binding
[5] = aqueous sodium fluorescein, reference (18); cited from earlier work
BZ receptors [6] = experiment: Inhibition of BD 621 binding in cerebellar membrane; set-up: species or system rat; details: read-out: Kl, inhibition of BD 621 binding
BZ receptors [7] = experiment: Displacement of BD 621 or BD 607 (50 nM) binding to cortical membranes by fluorescence measurement; set-up: species or system rat (Sprague-Dawley)
BZ receptors [8] = experiment: Inhibition of [3H]Ro 15-1788 binding in cerebellar membrane; set-up: species or system rat; details: read-out: Kl, inhibition of [3H]Ro 15-1788 binding
BZ receptors [9] = experiment: Radioligand saturation binding ([3H]Ro 15-1788, [3H]flunitrazepam) to cortical membranes; set-up: species or system rat (Sprague-Dawley)
benzodiazepine receptors [10] = experiment: BD 623 fluorescence quenching/dequenching assay in brain membranes; type: binding, rat (Sprague-Dawley); details: for fluorescence on addition to brain membranes: suspension of brain membranes
[11] = Storage stability in Me2SO (TLC); type: physicochemical; details: several months, dark, -80° C.
benzodiazepine receptors [12] = experiment: [3H]Ro 15-1788 radioligand binding assay (filtration), Example 4; details: read-out: Kl, inhibition of [3H]Ro 15-1788 binding; 2-64 nM BD 623, 1.0 nM radioligand, n=3
benzodiazepine receptors [13] = details: membrane preparations of rat brain; cited from earlier work
[14] = compared with tissue suspension or buffer
[15] = read-out: Kl, inhibition of BD 607 binding
[16] = read-out: Kl, inhibition of BD 621 binding
[17] = 64-2048 nM, BD 621 or BD 607 50 nM
[18] = 0.25-12 nM radioligand, 4° C., terminated by centrifugation
[19] = BD 623 6.25-100 nM, dequenched with flurazepam (100 μM), n=3

For `O=C(NCCN1C(=O)CN=C(c2ccccc2F)c2cc(Cl)ccc21)c1ccc2c(c1)C(=O)OC21c2ccc(O)cc2Oc2cc(O)ccc21` [BD 607], the reversibility of binding (benzodiazepine receptors [1]; fluorescence measurement) was “reversible”, the “apparent affinities for BZ receptors compared with parent BZs Ro 15-1788 and Ro 7-1986” value (benzodiazepine receptors [1]; from KD by fluorescence and Ki by inhibition of radioligand binding) was “reduced” and the Bmax (benzodiazepine receptors [1]; saturation isotherm, fluorescence measurement, cortical membranes, 4° C., centrifugation, mean ± SEM) was 4.5±0.2 pmol/mg protein. The Kd (benzodiazepine receptors [1]; saturation isotherm, fluorescence measurement, cortical membranes, 4° C., centrifugation, mean ± SEM, three determinations) was 74 ± 4 nM, the emission maximum [2] was 521 nm and the excitation maximum [2] was 494 nm. The “fluorescence intensity in ethanol” value [2, 14] was “reduced”, the “fluorescence intensity in ethyl acetate” value [2, 14] was “greatly increased” and the “effect of photoaffinity labeling with Ro 15-4513 on binding” value (BZ receptors [3]) was “abolished”. For the same compound, the Ki (BZ receptors [4]) was 165 ± 3 nM.

In the case of `O=C1OC2(c3ccc(O)cc3Oc3cc(O)ccc32)c2ccccc21` [sodium fluorescein], the “quantum yield of the standard” value [5] is listed as 0.92.

With `CCN(CC)CCN1C(=O)CN=C(c2ccccc2F)c2cc(Cl)ccc21` [flurazepam] the “fluorescence at 542 nm relative to total fluorescence intensity” value ([2]; flurazepam 100 μM) was < 0.1%, the Ki (BZ receptors [6]) was 14 ± 1.4 nM and the Ki (BZ receptors [7]; [15]) was 34.2 ± 3.4 nM. The Ki (BZ receptors [7]; [16]) was 23 ± 2.9 nM, the Ki (BZ receptors [8]) was 51 ± 0.2 nM and the Ki (BZ receptors [4]) was 41 ± 1 nM.

In the case of `NCCc1c[nH]c2ccc(O)cc12` [serotonin], the “reduction in BD 621 or BD 607 binding” value (BZ receptors [7]; [17]) is reported as “No significant reduction” and the “alteration of [3H]Ro 15-1788 binding” value (BZ receptors [4]; 64-2048 nM, cortical membranes) is reported as “not altered”.

With `CN1C(=O)CN=C(c2ccc(Cl)cc2)c2cc(Cl)ccc21` [Ro 5-4864] the “reduction in BD 621 or BD 607 binding” value (BZ receptors [7]) was “No significant reduction” and the “alteration of [3H]Ro 15-1788 binding” value (BZ receptors [4]) was “not altered”.

With `CN1C(=O)CN=C(c2ccccc2F)c2cc([N+](=O)[O-])ccc21` [[^3 H] flunitrazepam] the Bmax (BZ receptors [9]; [18]) was 4.1±0.1 pmol/mg protein, the Kd (BZ receptors [9]; [18]) was 3.4 ± 0.5 nM and the Bmax (BZ receptors [9]; terminated by filtration) was 2.5 ± 0.3 pmol/mg protein. It also gave a Kd (BZ receptors [9]; terminated by filtration) of 2.6 ± 0.1 nM.

In the case of `C=CCN1CC[C@]23c4c5ccc(O)c4O[C@H]2C(=O)CC[C@@]3(O)[C@H]1C5` [naloxone], the “dequenching of BD 623 fluorescence” value (benzodiazepine receptors [10]; large excess of benzodiazepine receptor ligands (flurazepam 100 μM), non-benzodiazepine receptor ligands 10 μM) is reported as “did not effect a dequenching of fluorescence”, the “reduction in BD 621 or BD 607 binding” value (BZ receptors [7]; [17]) is reported as “No significant reduction” and the “alteration of [3H]Ro 15-1788 binding” value (BZ receptors [4]; 64-2048 nM, cortical membranes) is reported as “not altered”.

In the case of `Cc1nnc2n1-c1ccc(Cl)cc1C(c1ccccc1Cl)=NC2` [triazolam], the Ki (BZ receptors [7]; [15]) is reported as 0.7 ± 0.2 nM, the Ki (BZ receptors [7]; [16]) is reported as 1.1 ± 0.3 nM and the Ki (BZ receptors [4]) is reported as 1.6 ± 0.1 nM.

For `C[N+]1(C)CCc2cc3c(cc2C1C1OC(=O)c2c1ccc1c2OCO1)OCO3` (single isomer, unassigned) [BMI, bicuculline methiodide], the “reduction in BD 621 or BD 607 binding” value (BZ receptors [7]; [17]) was “No significant reduction” and the “alteration of [3H]Ro 15-1788 binding” value (BZ receptors [4]; 64-2048 nM, cortical membranes) was “not altered”.

For `CN1Cc2c(C(=O)OCCCNc3ccc([N+](=O)[O-])c4nonc34)ncn2-c2ccc(F)cc2C1=O` [BD 623], the excitation maximum [2] was 486±2 nm and 486 nm, the quantum yield ([2]; 50 mM Tris citrate (pH 7.4), sodium fluorescein as standard) was 0.02 and the extinction coefficient ([2]; 22° C., 50 mM Tris citrate (pH 7.4)) was 17,600 M^-1 cm^-1. The “quantum yield in heat-denatured membranes and in 10% and 20% ethanol” value ([2]; boiling water bath for 10 min, 10% and 20% ethanol) was “increased quantum yield”, the “fluorescence intensity in presence vs. absence of tissue” value ([2]; tissue containing 100 μM flurazepam vs. Tris citrate buffer) was “significantly greater in the presence” and the “reversibility of BD 623 binding” value (benzodiazepine receptors [10]) was “bound reversibly”. The “Bmax by fluorescence quenching” value (benzodiazepine receptors [10]; [19]) was 7.2±0.4 pmol/mg of protein, the Kd (benzodiazepine receptors [10]; [19]) was 13.9 nM and the “reduction of quenched fluorescence (specific quenching) in photoaffinity-labeled membranes” value (benzodiazepine receptors [10]; membranes photoaffinity labeled with Ro 15-4513 (50 nM)) was 77%. For the same compound, the “fluorescence on addition to brain membranes” value (benzodiazepine receptors [10]) was “time-dependent quenching of its fluorescence”, the “fluorescence on addition to brain membranes” value (benzodiazepine receptors [10]; listed as BD-623) was “time-dependent quenching of fluorescence” and the “decomposition in Me2SO solution” value [11] was “did not undergo detectable decomposition”. For the same compound, the Ki (benzodiazepine receptors [12]) was 5.7 nM.

With `Cc1nnc2ccc(-c3cccc(C(F)(F)F)c3)nn12` [CL 218,872] the Ki (BZ receptors [6]) was 62 ± 7.7 nM, the Ki (BZ receptors [7]; [15]) was 115 ± 40 nM and the Ki (BZ receptors [7]; [16]) was 90 ± 25 nM. For the same compound, the Ki (BZ receptors [8]) was 239 ± 19 nM and the Ki (BZ receptors [4]) was 205 ± 3.5 nM.

For `CN1[C@@H]2CC[C@H]1C[C@@H](OC(=O)C(CO)c1ccccc1)C2` (stereo partly drawn) [atropine], the “reduction in BD 621 or BD 607 binding” value (BZ receptors [7]) was “No significant reduction” and the “alteration of [3H]Ro 15-1788 binding” value (BZ receptors [4]) was “not altered”.

In the case of `NCCCC(=O)O` [GABA, gamma-aminobutyric acid], the “effect on [3H]alprazolam binding” value (benzodiazepine receptors [13]) is given as “enhanced”.

Compound `CCOC(=O)c1cc2c(cn1)[nH]c1ccccc12` [β-CCE, ethyl-β-carboline-3-carboxylate] has a Ki (BZ receptors [6]) of 3.7 ± 2.5 nM, a Ki (BZ receptors [7]; [15]) of 8.9 ± 1.9 nM and a Ki (BZ receptors [7]; [16]) of 6.4 ± 0.2 nM. It also gave a Ki (BZ receptors [8]) of 10 ± 0.3 nM and a Ki (BZ receptors [4]) of 12 ± 3 nM.

`CN1C(=O)CN=C(c2ccccc2)c2cc(Cl)ccc21` [diazepam] gave a Ki (BZ receptors [7]; [15]) of 11.4 ± 6.5 nM, a Ki (BZ receptors [7]; [16]) of 18 ± 1.9 nM and a Ki (BZ receptors [4]) of 26 ± 2 nM.

In the case of `Cc1nnc2n1-c1ccc(Cl)cc1C(c1ccccc1)=NC2` [[^3 H]alprazolam], the “affinity of [3H]alprazolam” value (benzodiazepine receptors [13]) is given as “low nanomolar affinity”.
